ChEMBL document CHEMBL1134414, “Synthesis, antitumor cytotoxicity, and DNA-binding of novel N-5,2-di(omega-aminoalkyl)-2,6-dihydropyrazolo[3,4,5-kl]acridine-5-carboxamides” (J Med Chem, 2001)

What was measured:
Conditions in all cases: Bos taurus
[1] = system: Nucleic Acid
[2] = system: Nucleic Acid; remark: listed apart in the source
[3] = system: Nucleic Acid; remark: listed apart in the source
[4] = system: Nucleic Acid; assay: Apparent equilibrium constant for binding to calf thymus DNA by competitive displacement fluorometric assay; format: functional
Outline: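 Ethidium displacement from calf thymus DNA, [poly(dA-dT)]2 or [poly(dG-dC)]2 (1 μM each) in 10 mM Na2HPO4/10 mM NaH2PO4, 1 mM EDTA, pH 7.0, with 1.26 μM ethidium bromide. Drug (stock ~5 mM in DMSO) added serially; fluorescence read at 20 °C, ex 546/em 595 nm. C50 is the drug level giving 50% loss of bound-ethidium fluorescence, mean of three. Kapp = 1.26/C50 × 10^7.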

K app [2] [M⁻¹] | K app [3] [M⁻¹] | SMILES | K app [1] [M⁻¹] | K app [4] [M⁻¹]
1.86e-07 | 9.7e-07 | CN(C)CCNC(=O)c1ccc2c3c(c4cc(O)ccc4nc13)NN2CCN(C)C | 3.39e-07 | –
2.86e-06 | 7.9e-07 | CN(C)CCNC(=O)c1ccc2c3c(c4cc(O)ccc4nc13)NN2CCN1CCCCC1 | 1.43e-06 | –
0.000126 | 6.3e-07 | CN(C)CCNC(=O)c1ccc2c3c(c4cc([N+](=O)[O-])ccc4nc13)NN2CCN(C)C | – | 1.42e+09
1.46e-06 | 9.1e-07 | O=C(NCCNCCO)c1ccc2c3c(c4ccccc4nc13)NN2CCN1CCCCC1 | – | 1.5e+08
5.7e-07 | 1.73e-06 | COc1ccc2c(c1)-c1nn(CCN3CCCCC3)c3ccc(C(=O)NCCN(C)C)c(c13)N2 | 1.54e-07 | –
3.82e-08 | 3.1e-07 | CN(C)CCNC(=O)c1ccc2c3c(c4ccccc4nc13)NN2CCN1CCCC1 | 1.49e-07 | –
1.64e-06 | 3.5e-06 | CN(C)CCNC(=O)c1ccc2c3c(c4cc(N)ccc4nc13)NN2CCN1CCCCC1 | 3.24e-07 | –
1.47e-07 | 5e-07 | COc1ccc2c(c1)-c1nn(CCCN(C)C)c3ccc(C(=O)NCCN(C)C)c(c13)N2 | 2.93e-07 | –
3.9e-07 | 9.3e-07 | CCN(CC)CCNC(=O)c1ccc2c3c(c4ccccc4nc13)NN2CCN(CC)CC | 4.34e-07 | –
4.8e-07 | 1.13e-06 | O=C(NCCN1CCCCC1)c1ccc2c3c(c4ccccc4nc13)NN2CCN1CCCCC1 | 4.19e-07 | –
6.1e-07 | 6.66e-07 | O=C(NCCNCCO)c1ccc2c3c(c4ccccc4nc13)NN2CCN1CCCC1 | – | 3.02e+07
9.4e-08 | 3.8e-07 | CN(C)CCCNC(=O)c1ccc2c3c(c4ccccc4nc13)NN2CCCN(C)C | 2.74e-07 | –
7.27e-08 | 2.45e-07 | CN(C)CCNC(=O)c1ccc2c3c(c4ccccc4nc13)NN2CCN(C)C | 4.85e-07 | –
3.4e-07 | 3.2e-07 | COc1ccc2c(c1)-c1nn(CCN3CCCC3)c3ccc(C(=O)NCCN(C)C)c(c13)N2 | 3.5e-07 | –
2.82e-08 | 1.62e-07 | CN(C)CCCN1Nc2c3ccccc3nc3c(C(=O)NCCN(C)C)ccc1c23 | 5.04e-07 | –
1.56e-07 | 5.2e-07 | CN(C)CCN1Nc2c3ccccc3nc3c(C(=O)NCCN)ccc1c23 | 9.7e-07 | –
2.61e-07 | 4.14e-07 | COc1ccc2c(c1)-c1nn(CCN(C)C)c3ccc(C(=O)NCCN(C)C)c(c13)N2 | 1.75e-06 | –
3.7e-07 | 1.02e-06 | CN(C)CCNC(=O)c1ccc2c3c(c4ccccc4nc13)NN2CCN1CCCCC1 | 2.03e-06 | –
4.7e-08 | 1.8e-07 | CN(C)CCCN1Nc2c3cc(O)ccc3nc3c(C(=O)NCCN(C)C)ccc1c23 | 7.88e-07 | –
1.23e-08 | 2.07e-07 | CN(C)CCCNC(=O)c1ccc2c3c(c4ccccc4nc13)NN2CCN(C)C | 2.68e-07 | –
7.41e-06 | 1.05e-06 | CN(C)CCN1Nc2c3ccccc3nc3c(C(=O)NCCNCCO)ccc1c23 | – | 2.52e+09
1.7e-06 | 5.9e-07 | CN(C)CCNC(=O)c1ccc2c3c(c4cc(N)ccc4nc13)NN2CCN(C)C | – | 2.8e+08
1.2e-08 | 7.98e-07 | CN(C)CCNC(=O)c1ccc2c3c(c4cc(O)ccc4nc13)NN2CCN1CCCC1 | 1.26e-06 | –
0.000242 | 1.35e-05 | CN(C)CCNC(=O)c1ccc2c3c(c4cc([N+](=O)[O-])ccc4nc13)NN2CCN1CCCCC1 | – | 9.69e+08
1.57e-06 | 3.71e-06 | CN(C)CCNC(=O)c1ccc2c3c(c4cc([N+](=O)[O-])ccc4nc13)NN2CCN1CCCC1 | – | 1.1e+08
